Laboratory results reported in patent US8507219B2, “Method of treating inflammation with statins” (MUSC Foundation for Research Development, priority 1997, dated 2013).

Tested on: X-ALD fibroblasts

## CC[C@H](C)C(=O)O[C@H]1C[C@@H](C)C=C2C=C[C@H](C)[C@H](CC[C@@H]3C[C@@H](O)CC(=O)O3)[C@H]21 [Lovastatin]
  cytotoxicity at higher doses: cytotoxic to the X-ALD fibroblasts
